Molecular target: rat mGlu5 (Rattus norvegicus, UniProt P31424)
Experiment: Calcium mobilization mGlu5 assay
Assay type: cell-based
Details: for mGlu5 activity in words: highest concentration tested 30 μM

Amino acid sequences for entries named in this document (tags omitted). Residues count along the entry.
UniProt P31424, 21-1203: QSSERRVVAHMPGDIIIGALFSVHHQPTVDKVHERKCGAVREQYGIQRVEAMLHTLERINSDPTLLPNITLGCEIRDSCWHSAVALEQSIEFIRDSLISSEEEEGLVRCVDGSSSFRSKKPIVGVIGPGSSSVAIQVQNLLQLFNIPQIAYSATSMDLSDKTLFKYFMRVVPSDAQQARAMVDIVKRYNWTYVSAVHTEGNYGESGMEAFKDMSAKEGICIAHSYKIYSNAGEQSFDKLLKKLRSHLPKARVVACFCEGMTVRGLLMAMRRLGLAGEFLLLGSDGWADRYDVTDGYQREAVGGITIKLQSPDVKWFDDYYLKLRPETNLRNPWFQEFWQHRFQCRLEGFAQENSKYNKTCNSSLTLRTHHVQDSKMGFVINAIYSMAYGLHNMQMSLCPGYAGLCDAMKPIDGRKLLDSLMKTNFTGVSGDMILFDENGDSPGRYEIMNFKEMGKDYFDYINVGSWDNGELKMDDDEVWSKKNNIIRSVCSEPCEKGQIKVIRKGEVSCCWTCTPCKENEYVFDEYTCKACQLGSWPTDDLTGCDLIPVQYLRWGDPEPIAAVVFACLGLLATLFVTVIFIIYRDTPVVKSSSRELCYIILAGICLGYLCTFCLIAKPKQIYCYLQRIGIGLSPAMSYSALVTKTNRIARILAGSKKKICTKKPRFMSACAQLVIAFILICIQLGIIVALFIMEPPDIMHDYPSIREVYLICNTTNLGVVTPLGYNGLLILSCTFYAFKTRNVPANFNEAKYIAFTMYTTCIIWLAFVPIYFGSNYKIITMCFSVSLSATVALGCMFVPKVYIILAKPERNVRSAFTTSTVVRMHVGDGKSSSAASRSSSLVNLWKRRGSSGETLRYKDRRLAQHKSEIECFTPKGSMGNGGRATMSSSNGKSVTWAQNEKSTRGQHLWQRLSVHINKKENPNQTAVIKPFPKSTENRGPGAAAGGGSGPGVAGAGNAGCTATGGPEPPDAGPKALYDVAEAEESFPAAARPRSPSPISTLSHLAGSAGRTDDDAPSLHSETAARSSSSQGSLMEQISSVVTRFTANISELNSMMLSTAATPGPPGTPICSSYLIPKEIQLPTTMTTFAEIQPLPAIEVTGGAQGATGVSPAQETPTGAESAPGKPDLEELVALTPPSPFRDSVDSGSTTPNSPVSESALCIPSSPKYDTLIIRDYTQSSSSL

SMILES | mGlu5 activity in words | other results
Cc1cc(NC(=O)c2cccc(Oc3cccnc3)c2)ccn1 [Compound 13] | only weakly active | –
Cc1nsc(NC(=O)c2cccc(Oc3cccnc3)c2)n1 [Compound 19] | inactive | –
O=C(Nc1nc(C(F)(F)F)cs1)c1cccc(Oc2cccnc2)c1 [Compound 20] | inactive | –
Cc1nc(NC(=O)c2cccc(Oc3cccnc3)c2)nn1C [Compound 21] | inactive | IC50 (read-out: mGlu5 IC50, HEK293A cells expressing rat mGlu5, EC80 glutamate): > 30 µM
Cc1cc(Oc2cncnc2)cc(C(=O)Nc2ccc(F)cn2)c1 [Compound 29] | – | fold more potent than trifluoromethyl analog 29 (mGlu5 potency vs trifluoromethyl analog): more than 250 fold
Cc1nc(NC(=O)c2cc(F)cc(Oc3cncnc3)c2)sc1F [Compound 34] | – | fold loss of potency compared to 24 (mGlu5 potency vs 24): 2 fold
Cc1nc(NC(=O)c2cc(Cl)cc(Oc3cncnc3)c2)ccc1F [Compound 72] | – | fold less potent than 55 (mGlu5 potency vs 55): ≤ 3 fold

Source: article PMC3846293 (Bioorganic & medicinal chemistry letters, 2013)
